Reference: patent US9655965B2, “Radiosensitizer compounds for use in combination with radiation” (priority 2013, dated 2017)

Tests used:
[1] = tested on: human normal cells (GM05757); experiment: In vitro radiation-induced toxicity in human normal cells, MTT assay 12 days after X-ray; format: cell-based; conditions: GM05757, 12-hr treatment, then 0-10 Gy 225 keV X-ray, MTT at 12 days
Excerpt: (§1) Cisplatin, dichloro-diamino-benzene (Compound A), bromo-diamino-benzene (Compound D), insulin, and 3-(4,5-Dimethylthiazol-2-yl)-2,5-diphenyltetrazolium bromide (MTT) were obtained from Sigma-Aldrich. Dibromo-diamino-benzene (Dibromo-phenylenediamine, Compound B) was obtained from TCI-America. Diiodo-diaminobenzene (Compound C) were synthesized, purified and crystallized in our laboratory, and the structures and purity were examined by NMR and mass spectrometry. MEM and fetal bovine serum (FBS), penicillin G and streptomycin were obtained from Hyclone Laboratories (UT, USA). Stock solution of cisplatin was freshly prepared in ultrapure water or saline, and stock solutions of Compounds A, B, C, D were prepared in pure ethanol, where the final concentration of ethanol was ≦1% when treated to cells.
(§2) A human skin diploid fibroblast (GM05757 cell line) was obtained from the Coriell Cell Repository directly. Fetal bovine serum (FBS) was obtained from Hyclone Laboratories (UT, USA). […]
(§3) The radiosensitizing effects of RSCs on cell viability were determined by the 3-[4,5-dimethylthiazol-2-yl]-2,5-diphenyl tetrazoliumbromide (MTT) assay. […] The surviving fraction was determined by measuring the absorbance at 540 nm (570 nm for SDS solubilization) using a Multiskan Spectrum UV/Vis microplate reader (Thermo Scientific), which is directly proportional to the number of viable cells.

[2] = tested on: human normal cells (GM05757); experiment: In vitro toxicity in human normal cells, 72-hr treatment, MTT assay; format: cell-based; conditions: GM05757, 72-hr treatment, without ionizing radiation, 0-50 μM cisplatin, 0-200 μM compounds
Excerpt: as §1, §2, §3

What does the source list for “bromo-(1,2-)diamino-benzene [Compound D]”?
radiation toxicity in human normal cells [1]: no radiation toxicity; toxicity toward human normal cells [2]: essentially no toxicity; also recorded: little toxicity up to 200 μM

“Also recorded” adds a separate entry of the source.
